Literature values in PMC9212491 (Antiviral Research, 2022).

Test system: JAK1
Conditions: ref Stebbing et al.,2021; Klaeger et al.,2017; cited from earlier work

## CCS(=O)(=O)N1CC(CC#N)(n2cc(-c3ncnc4[nH]ccc34)cn2)C1 [Baricitinib, baricitinib]
  JAK1 (Other targets, measure not stated): 5.9 nM
